# Reference: patent publication US9139587B2, “N1-pyrazolospiroketone acetyl-CoA carboxylase inhibitors” (Pfizer Inc., priority 2009, dated 2015)
# Amino acid sequences for entries named in this document (tags omitted).
# UniProt O00763, whole entry V2141I: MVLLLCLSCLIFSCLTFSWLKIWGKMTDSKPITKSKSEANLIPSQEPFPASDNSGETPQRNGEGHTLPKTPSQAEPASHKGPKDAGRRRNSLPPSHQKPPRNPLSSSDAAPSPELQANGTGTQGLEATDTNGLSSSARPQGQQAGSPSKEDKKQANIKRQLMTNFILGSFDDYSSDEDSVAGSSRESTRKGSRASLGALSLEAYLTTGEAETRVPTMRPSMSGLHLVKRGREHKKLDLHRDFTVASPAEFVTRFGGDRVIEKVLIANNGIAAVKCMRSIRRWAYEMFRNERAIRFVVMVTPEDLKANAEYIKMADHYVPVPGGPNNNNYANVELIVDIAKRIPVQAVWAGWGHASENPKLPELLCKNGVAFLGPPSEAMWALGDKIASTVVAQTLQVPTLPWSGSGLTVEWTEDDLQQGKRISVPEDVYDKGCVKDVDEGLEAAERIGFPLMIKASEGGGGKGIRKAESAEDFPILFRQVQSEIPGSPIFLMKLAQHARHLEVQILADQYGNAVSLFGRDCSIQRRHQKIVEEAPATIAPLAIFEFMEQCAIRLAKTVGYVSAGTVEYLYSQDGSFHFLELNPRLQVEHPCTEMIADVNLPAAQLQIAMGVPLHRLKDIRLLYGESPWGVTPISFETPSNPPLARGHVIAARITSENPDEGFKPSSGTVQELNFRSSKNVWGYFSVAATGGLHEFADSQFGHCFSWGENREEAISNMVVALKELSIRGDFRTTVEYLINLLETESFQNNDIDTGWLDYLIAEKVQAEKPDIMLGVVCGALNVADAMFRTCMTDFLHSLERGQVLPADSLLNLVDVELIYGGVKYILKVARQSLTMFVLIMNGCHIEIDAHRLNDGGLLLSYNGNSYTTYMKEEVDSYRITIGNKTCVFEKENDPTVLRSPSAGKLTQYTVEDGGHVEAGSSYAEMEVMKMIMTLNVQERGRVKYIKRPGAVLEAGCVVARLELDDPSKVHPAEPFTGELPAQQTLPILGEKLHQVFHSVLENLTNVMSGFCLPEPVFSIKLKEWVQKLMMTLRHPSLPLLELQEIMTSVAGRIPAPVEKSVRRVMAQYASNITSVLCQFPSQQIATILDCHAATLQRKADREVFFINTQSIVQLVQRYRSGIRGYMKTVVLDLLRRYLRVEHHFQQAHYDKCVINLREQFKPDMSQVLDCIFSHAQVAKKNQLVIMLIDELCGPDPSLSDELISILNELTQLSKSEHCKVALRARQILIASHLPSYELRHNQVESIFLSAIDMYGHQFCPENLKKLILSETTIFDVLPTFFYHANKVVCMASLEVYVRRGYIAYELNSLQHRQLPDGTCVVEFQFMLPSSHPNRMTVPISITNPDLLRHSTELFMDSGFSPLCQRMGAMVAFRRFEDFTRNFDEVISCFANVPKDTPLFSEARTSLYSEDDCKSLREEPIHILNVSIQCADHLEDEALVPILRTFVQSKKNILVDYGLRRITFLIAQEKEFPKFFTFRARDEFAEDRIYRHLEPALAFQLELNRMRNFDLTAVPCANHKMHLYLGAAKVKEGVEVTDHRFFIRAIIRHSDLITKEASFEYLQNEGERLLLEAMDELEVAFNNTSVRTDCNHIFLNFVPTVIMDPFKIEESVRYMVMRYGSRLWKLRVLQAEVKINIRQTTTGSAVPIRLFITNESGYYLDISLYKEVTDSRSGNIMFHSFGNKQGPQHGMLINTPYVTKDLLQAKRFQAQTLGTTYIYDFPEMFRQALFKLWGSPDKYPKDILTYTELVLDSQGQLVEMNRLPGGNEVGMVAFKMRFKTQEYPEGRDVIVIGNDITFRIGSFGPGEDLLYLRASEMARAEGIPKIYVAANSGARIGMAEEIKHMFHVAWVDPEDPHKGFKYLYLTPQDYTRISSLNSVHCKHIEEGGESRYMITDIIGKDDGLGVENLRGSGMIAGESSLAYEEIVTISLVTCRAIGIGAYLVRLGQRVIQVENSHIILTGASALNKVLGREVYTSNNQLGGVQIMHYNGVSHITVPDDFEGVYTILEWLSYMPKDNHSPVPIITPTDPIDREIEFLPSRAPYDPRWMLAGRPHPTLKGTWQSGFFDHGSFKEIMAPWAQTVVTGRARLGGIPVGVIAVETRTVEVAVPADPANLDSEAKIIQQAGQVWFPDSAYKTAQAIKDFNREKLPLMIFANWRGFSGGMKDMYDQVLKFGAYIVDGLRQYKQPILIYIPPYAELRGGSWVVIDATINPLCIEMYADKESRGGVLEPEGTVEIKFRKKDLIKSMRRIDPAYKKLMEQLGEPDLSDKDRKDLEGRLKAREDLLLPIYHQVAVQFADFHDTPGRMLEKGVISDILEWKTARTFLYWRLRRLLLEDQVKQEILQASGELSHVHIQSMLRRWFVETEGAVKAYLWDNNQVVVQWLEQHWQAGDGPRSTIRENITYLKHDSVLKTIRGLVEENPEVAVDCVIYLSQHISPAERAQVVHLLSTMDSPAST
# How the values were obtained:
# [1] = target: recombinant human ACC2 (rhACC2) (Homo sapiens, UniProt O00763, V2141I); test: recombinant hACC2 Transcreener assay (direct inhibition of ACC2 activity); settings: read-out: hACC2, Transcreener ADP detection FP assay, 50 μM ATP, 30 μM acetyl-CoA, 50 min at 25° C.
# Experimental: For example direct inhibition of ACC activity, for the compound of Formula (1) was determined using preparations of recombinant human ACC1 (rhACC1) and recombinant human ACC2 (rhACC2). Representative sequences of the recombinant human ACC1 and ACC2 that can be used in the assay are provided in FIG. 1 (SEQ ID NO. 1) and FIG. 2 (SEQ. ID NO. 2), respectively.
# [3] Preparation of rhACC2. Human ACC2 inhibition was measured using purified recombinant human ACC2 (hrACC2). Briefly, a full length Cytomax clone of ACC2 was purchased from Cambridge Bioscience Limited and was sequenced and subcloned into PcDNA5 FRT TO-TOPO (Invitrogen, Carlsbad, Calif.). The ACC2 was expressed in CHO cells by tetracycline induction and harvested in 5 liters of DMEM/F12 with glutamine, biotin, hygromycin and blasticidin with 1 μg/mL tetracycline (Invitrogen, Carlsbad, Calif.). The conditioned medium containing ACC2 was then applied to a Softlink Soft Release Avidin column (Promega, Madison, Wis.) and eluted with 5 mM biotin. 4 mgs of ACC2 were eluted at a concentration of 0.05 mg/mL (determined by A280) with an estimated purity of 95% ([…]). The purified ACC2 was dialyzed in 50 mM Tris, 200 mM NaCl, 4 mM DTT, 2 mM EDTA, and 5% glycerol. The pooled protein was frozen and stored at −80° C., with no loss of activity upon thawing. For measurement of ACC2 activity and assessment of ACC2 inhibition, test compounds were dissolved in DMSO and added to the rhACC2 enzyme as a 5× stock with a final DMSO concentration of 1%.
# [4] Measurement of human ACC2 inhibition. hACC2 was assayed in a Costar #3676 (Costar, Cambridge, Mass.) 384-well plate using the Transcreener ADP detection FP assay kit (Bellbrook Labs, Madison, Wisconsin) using the manufacturer's recommended conditions for a 50 uM ATP reaction. The final conditions for the assay were 50 mM HEPES, pH 7.2, 5 mM MgCl2, 5 mM tripotassium citrate, 2 mM DTT, 0.1 mg/mL BSA, 30 μM acetyl-CoA, 50 μM ATP, and 8 mM KHCO3 Typically, a 10 μl reaction was run for 50 min at 25° C., and 10 μl of Transcreener stop and detect buffer was added and the combination incubated at room temp for an additional 1 hour. The data was acquired on an Envision Fluorescence reader (Perkinelmer) using a 620 excitation Cy5 FP general dual mirror, 620 excitation Cy5 FP filter, 688 emission (S) and a 688 (P) emission filter.
# [2] = target: recombinant human ACC1 (rhACC1) (Homo sapiens, UniProt Q13085, DEL44-44); test: recombinant hACC1 Transcreener assay (direct inhibition of ACC1 activity); format: biochemical; settings: read-out: hACC1, Transcreener ADP detection FP assay, 50 μM ATP, 30 μM acetyl-CoA, 120 min at 25° C.
# Experimental: For example direct inhibition of ACC activity, for the compound of Formula (1) was determined using preparations of recombinant human ACC1 (rhACC1) and recombinant human ACC2 (rhACC2). Representative sequences of the recombinant human ACC1 and ACC2 that can be used in the assay are provided in FIG. 1 (SEQ ID NO. 1) and FIG. 2 (SEQ. ID NO. 2), respectively. Preparation of rhACC1. Two liters of SF9 cells, infected with recombinant baculovirus containing full length human ACC1 cDNA, were suspended in ice-cold lysis buffer (25 mM Tris, pH 7.5; 150 mM NaCl; 10% glycerol; 5 mM imidazole (EMD Bioscience; Gibbstown, N.J.); 2 mM TCEP (BioVectra; Charlottetown, Canada); Benzonase nuclease (10000 U/100 g cell paste; Novagen; Madison, Wis.); EDTA-free protease inhibitor cocktail (1 tab/50 mL; Roche Diagnostics; Mannheim, Germany). Cells were lysed by 3 cycles of freeze-thaw and centrifuged at 40,000×g for 40 minutes (4° C.). Supernatant was directly loaded onto a HisTrap FF crude column (GE Healthcare; Piscataway, N.J.) and eluted with an imidazole gradient up to 0.5 M over 20 column volumes (CV). ACC1-containing fractions were pooled and diluted 1:5 with 25 mM Tris, pH 7.5, 2 mM TCEP, 10% glycerol and direct loaded onto a CaptoQ (GE Healthcare) column and eluted with an NaCl gradient up to 1 M over 20 CV's. Phosphate groups were removed from purified ACC1 by incubation with lambda phosphatase (100 U/10 μM target protein; New England Biolabs; Beverly, Mass.) for 14 hours at 4° C.; okadaic acid was added (1 μM final concentration; Roche Diagnostics) to inhibit the phosphatase. Purified ACC1 was exchanged into 25 mM Tris, pH 7.5, 2 mM TCEP, 10% glycerol, 0.5 M NaCl by 6 hour dialysis at 4° C. Aliquots were prepared and frozen at −80° C. […] The final conditions for the assay were 50 mM HEPES, pH 7.2, 10 mM MgCl2, 7.5 mM tripotassium citrate, 2 mM DTT, 0.1 mg/mL BSA, 30 μM acetyl-CoA, 50 μM ATP, and 10 mM KHCO3 Typically, a 10 μl reaction was run for 120 min at 25° C., and 10 μl of Transcreener stop and detect buffer was added and the combination incubated at room temp for an additional 1 hour. The data was acquired on a Envision Fluorescence reader (Perkinelmer) using a 620 excitation Cy5 FP general dual mirror, 620 excitation Cy5 FP filter, 688 emission (S) and a 688 (P) emission filter.
# [3] = tested form: free base (may be converted to hydrochlo)
IC50 [1] [nM],IC50 [2] [nM],"IC50 [1, 3] [nM]","IC50 [2, 3] [nM]",SMILES
26.8,40.9,,,Cc1cccc2c(=O)cc(C(=O)N3CCC4(CC3)CC(=O)c3c(cnn3C(C)(C)C)C4)[nH]c12
287,795,,,CNc1cc(C(=O)N2CCC3(CC2)CC(=O)c2c(cnn2C(C)C)C3)ccn1
34.1,97.3,,,CC(C)n1ncc2c1C(=O)CC1(CCN(C(=O)c3ccc4c(c3)C(=O)NCC4)CC1)C2
,,64.1,269,CC(C)n1ncc2c1C(=O)CC1(CCN(C(=O)c3ccc4[nH]c(=O)n(C)c4c3)CC1)C2
139,516,,,CC(C)n1ncc2c1C(=O)CC1(CCN(C(=O)c3ccc4cccnc4c3O)CC1)C2
47.3,128,,,CC(C)n1ncc2c1C(=O)CC1(CCN(C(=O)c3ccc(-c4cn[nH]c4)cc3)CC1)C2
42.4,43.8,,,CC(C)n1ncc2c1C(=O)CC1(CCN(C(=O)c3cnc4[nH]ccc4c3)CC1)C2

# Where two headings read alike, the source gives them in different places.
